Source: US20150166664A1, “NOVEL THERAPEUTIC TREATMENTS WITH ANTI-HER2 ANTIBODIES HAVING A LOW FUCOSYLATION” (Glycotope GmbH, priority 2012, published 2015)

Key:
[1] = system: HER-2/NEU-over expressing metastatic breast cancer; conditions: cited from earlier work
BT474 cells = test: Active caspase-3 apoptosis assay after cross-linking with protein G; assay type: cell-based, human; conditions: cross-linking by protein G 2 μg/ml
Excerpt: As a marker for induction of apoptosis, we analyzed the activation of caspase-3 using the BD PE Active Caspase-3 Apoptosis Kit. Caspase-3, a cystein protease, is a key protease that is activated during the early stages of apoptosis. […] The processed form consists of two subunits (17 kDa and 12 kDa) which associate to form the active caspase. Active caspase-3 proteolytically cleaves and activates other caspases as well as targets in the cytoplasm and in the nucleus, thereby promoting apoptosis. Activation of caspases is generally considered as the “point of no return” in apoptotic pathways.
Briefly, tumor cell lines were cultured in medium containing 1% FCS for one day prior to the assay. Cells were seeded into 48 well plates incubated at 37° C. in a CO2 incubator over night. […] The plates were incubated for 4 to 48 h at 37° C. in a CO2 incubator.
Cells (both adherent and non-adherent cells) were harvested, permeabilized, fixed and stained for active caspase-3 according to manufacturer's protocol. Active caspase-3-positive (apoptotic) cells were analyzed by flow cytometry at a BD FACS Canto II flow cytometer using BD FACSDiva™ Software.

[2] = system: BT474 human breast carcinoma xenograft; test: BT474 xenograft antitumor activity; assay type: in vivo, nude mice; conditions: for BT474 tumor growth compared to PBS treated animals: 3 mg/kg and 30 mg/kg i.v. twice weekly for 4 weeks; for tumor remissions: BT474, i.v. twice weekly for 4 weeks, 3 mg/kg and 30 mg/kg
Description: A pharmacodynamic study in nude mice analysing the efficacy of Fuc− trastuzumab in different tumor models was performed and also compared to Fuc+ trastuzumab. Athymic nude mice xenografted with HER2 positive tumor cells from a human cell line BT474 or from patient derived carcinomas were used.
In the study 1×10^7 tumor cells were subcutaneously (s.c.) implanted into nude mice (N=8 per group) and allowed to grow until tumors reached palpable size, which was reached approximately 7-13 days post implantation. The target tumor size was ˜0.1 cm^3. At this time point antibody treatment was started. Tumor size was measured twice weekly with a calliper-like instrument. Individual tumor volumes were calculated (V=(length+width^2)/2) and related to the values at the first day of treatment (relative tumor volume). The therapeutic effect was determined in terms of primary tumor growth inhibition.
The application volume was 10 μl/g body weight for both antibody formulations. […] For the set of experiments a body weight based dosing was selected to enhance the dosing accuracy and comparability during the treatment period (Fichtner et al. 2008, Steiner et al. 2007). Mabthera® (Roche) served as an irrelevant antibody control and was administered only at a dose level of 30 mg/kg. Xenografted mice were treated at the indicated dosage level when tumors reached palpable size. Each symbol represents the mean value and SEM of a group of 8 animals.

[3] = system: locally advanced or metastatic HER2-positive cancer; conditions: Example 3 patient history; one monotherapy and two combination therapies; cited from earlier work
MCF-7 cells = test: ADCC europium release assay with human PBMC on MCF-7; assay type: cell-based; conditions: lower HER2 expressing tumors (MCF-7)
HER2 positive cell lines = test: Flow cytometry binding on HER2 positive cell lines; conditions: all tumor cell lines tested; 0.01 to 10 μg/ml; compared with Fuc+ trastuzumab (Herceptin®)
Description: Briefly, target cells were harvested and incubated with the trastuzumab variant at different concentrations. Cells were washed and incubated with a secondary Cy3-conjugated anti-human IgG antibody at 4° C. in the dark. Cells were washed and analyzed in a flow cytometer FACS Canto II (Becton Dickinson). Live cells were gated based on their scatter properties and the percentage of positive cells was calculated using the FACSDiva Software (Becton Dickinson). […] There were no differences in the percentage of positive cells over the whole analyzed concentration range of 0.01 to 10 μg/ml.

[4] = system: patient derived #7268 gastric carcinoma xenografts; conditions: 1 mg/kg and 10 mg/kg i.v. twice weekly for 4 weeks; p<0.001

Substance | response rate ([1]; bone metastases) [%] | patients with progressive disease ([1]; heavily pre-treated patients) [%] | time to disease progression (median) ([1]; human, in vivo) [months] | response ([1]; lung and liver metastases) | response rate ([1]; lymphnodes) [%] | response rate ([1]; skin metastasis) [%] | apoptosis induction (active caspase-3 positive cells) (BT474 cells) | BT474 tumor growth compared to PBS treated animals ([2]; p<0.001) | tumor remissions [2] | effect of pretreatment [3] | Fuc− trastuzumab mediated ADCC increase, mean (MCF-7 cells) | binding characteristics (percentage of positive cells) (HER2 positive cell lines) | BT474 tumor growth compared to vehicle treated animals ([2]; second study, 0.1 mg/kg to 10 mg/kg i.v. twice weekly for 4 weeks, p<0.001) | tumor growth [4]
Fuc+ trastuzumab: high fucose anti-HER2 antibody trastuzumab produced in hamster CHO cells, substantially corresponds to trastuzumab (Herceptin®) | 10 | 65 | 3.1 | no response | 43 | 50 | comparable | inhibit strongly | 7 of 8 | no effect |  |  |  | 
Fuc− trastuzumab: low fucosylation variant of trastuzumab expressed in a human myeloid leukemia cell line having a reduced fucosylation activity |  |  |  |  |  |  | strong concentration-dependent apoptosis | inhibit strongly | 8 of 8 |  | 42 fold and 43 fold | comparable binding characteristics | inhibited strongly and dose-dependently | inhibited the tumor growth significantly

Where “and” joins values, the source holds several entries; their conditions need not be identical. Equal values may be shown once. Read-outs that look alike come from different tables or passages of the source.
